Data taken from US8187832B2, “Method of detecting an amount of a cholinesterase inhibitor in a sample” (dated 2012).

Amino acid sequences for entries named in this document (tags omitted). Residues count along the entry.
UniProt O42275, 24-633 limits assumed: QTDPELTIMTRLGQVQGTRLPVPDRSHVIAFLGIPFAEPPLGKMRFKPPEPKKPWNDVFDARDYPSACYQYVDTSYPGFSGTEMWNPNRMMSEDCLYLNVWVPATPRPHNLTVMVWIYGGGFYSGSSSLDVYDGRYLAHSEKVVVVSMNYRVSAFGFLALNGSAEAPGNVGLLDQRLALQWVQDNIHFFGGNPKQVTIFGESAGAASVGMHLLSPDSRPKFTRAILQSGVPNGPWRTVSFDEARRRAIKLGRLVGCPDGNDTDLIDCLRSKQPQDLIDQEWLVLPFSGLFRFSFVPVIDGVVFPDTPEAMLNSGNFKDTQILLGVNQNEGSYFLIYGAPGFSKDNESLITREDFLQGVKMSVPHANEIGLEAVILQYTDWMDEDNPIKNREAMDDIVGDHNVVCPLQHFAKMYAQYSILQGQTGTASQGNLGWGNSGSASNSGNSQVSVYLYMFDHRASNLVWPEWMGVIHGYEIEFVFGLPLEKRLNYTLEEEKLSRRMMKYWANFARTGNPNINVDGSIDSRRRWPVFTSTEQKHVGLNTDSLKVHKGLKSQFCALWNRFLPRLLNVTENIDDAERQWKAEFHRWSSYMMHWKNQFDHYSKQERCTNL

Molecular target: Immobilised AChE (ImmAChE) (Electrophorus electricus, UniProt O42275)
Assay: Current test response to sarin in human blood in the presence of pyridostigmine or 2-pralidoxime chloride
Conditions: oxime reactivator as treatment drug

Pyridine-2-aldoxime methochloride
whole blood concentration up to which detection of OP cholinesterase inhibitors is permitted: up to 0.266 mM
